Literature values in US11564958B2, “Compositions and methods of treatment of Ehlers-Danlos syndromes” (RESOLYS BIO, INC., priority 2017, dated 2023).

System: classical form of EDS
Conditions: human, in vivo

Which “tendon collagen synthesis rates” value does the source give for IGF-I here?
The value was “improved”.
